# Values quoted from earlier work in paper PMC5684876.
# Sequences of proteins named here, by UniProt entry; tags and fusion partners are left off.
# UniProt P40337, whole entry: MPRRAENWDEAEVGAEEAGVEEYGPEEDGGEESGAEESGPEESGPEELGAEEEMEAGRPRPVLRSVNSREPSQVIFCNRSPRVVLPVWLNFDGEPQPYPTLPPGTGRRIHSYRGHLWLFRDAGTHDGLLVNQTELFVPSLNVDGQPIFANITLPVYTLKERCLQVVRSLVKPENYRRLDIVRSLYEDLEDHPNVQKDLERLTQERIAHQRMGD
# UniProt Q16665, whole entry: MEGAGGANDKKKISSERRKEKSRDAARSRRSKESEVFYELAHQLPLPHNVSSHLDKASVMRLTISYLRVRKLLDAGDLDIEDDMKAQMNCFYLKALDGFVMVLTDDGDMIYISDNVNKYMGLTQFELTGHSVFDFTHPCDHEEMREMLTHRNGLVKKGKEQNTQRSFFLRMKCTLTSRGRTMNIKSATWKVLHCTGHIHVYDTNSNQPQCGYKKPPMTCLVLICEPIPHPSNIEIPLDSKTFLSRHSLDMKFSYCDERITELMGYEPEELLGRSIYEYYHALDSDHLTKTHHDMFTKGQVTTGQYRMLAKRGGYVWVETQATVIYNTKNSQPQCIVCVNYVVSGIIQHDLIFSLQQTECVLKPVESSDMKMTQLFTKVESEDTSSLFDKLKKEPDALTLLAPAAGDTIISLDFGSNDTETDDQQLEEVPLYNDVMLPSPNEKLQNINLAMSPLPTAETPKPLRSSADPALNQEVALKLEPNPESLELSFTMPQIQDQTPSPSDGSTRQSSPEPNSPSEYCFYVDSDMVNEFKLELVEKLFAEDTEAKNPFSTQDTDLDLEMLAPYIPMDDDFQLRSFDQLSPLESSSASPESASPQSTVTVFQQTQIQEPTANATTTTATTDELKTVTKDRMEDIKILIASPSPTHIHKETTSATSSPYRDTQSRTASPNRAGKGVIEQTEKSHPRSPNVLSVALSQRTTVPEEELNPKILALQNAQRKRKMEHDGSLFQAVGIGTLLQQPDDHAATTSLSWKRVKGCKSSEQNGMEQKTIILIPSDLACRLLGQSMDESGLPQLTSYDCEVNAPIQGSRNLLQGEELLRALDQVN
# Target: VHL (Homo sapiens) (UniProt P40337)
substance,measurement,value
HIF1α 10-mer fragment (from UniProt Q16665),Kd,200 nM
